From paper PMC4759478 (2016)

By UniProt entry, the sequences of proteins in these tests, tags left out. Residues count along the entry.
UniProt P00533, 25-1210: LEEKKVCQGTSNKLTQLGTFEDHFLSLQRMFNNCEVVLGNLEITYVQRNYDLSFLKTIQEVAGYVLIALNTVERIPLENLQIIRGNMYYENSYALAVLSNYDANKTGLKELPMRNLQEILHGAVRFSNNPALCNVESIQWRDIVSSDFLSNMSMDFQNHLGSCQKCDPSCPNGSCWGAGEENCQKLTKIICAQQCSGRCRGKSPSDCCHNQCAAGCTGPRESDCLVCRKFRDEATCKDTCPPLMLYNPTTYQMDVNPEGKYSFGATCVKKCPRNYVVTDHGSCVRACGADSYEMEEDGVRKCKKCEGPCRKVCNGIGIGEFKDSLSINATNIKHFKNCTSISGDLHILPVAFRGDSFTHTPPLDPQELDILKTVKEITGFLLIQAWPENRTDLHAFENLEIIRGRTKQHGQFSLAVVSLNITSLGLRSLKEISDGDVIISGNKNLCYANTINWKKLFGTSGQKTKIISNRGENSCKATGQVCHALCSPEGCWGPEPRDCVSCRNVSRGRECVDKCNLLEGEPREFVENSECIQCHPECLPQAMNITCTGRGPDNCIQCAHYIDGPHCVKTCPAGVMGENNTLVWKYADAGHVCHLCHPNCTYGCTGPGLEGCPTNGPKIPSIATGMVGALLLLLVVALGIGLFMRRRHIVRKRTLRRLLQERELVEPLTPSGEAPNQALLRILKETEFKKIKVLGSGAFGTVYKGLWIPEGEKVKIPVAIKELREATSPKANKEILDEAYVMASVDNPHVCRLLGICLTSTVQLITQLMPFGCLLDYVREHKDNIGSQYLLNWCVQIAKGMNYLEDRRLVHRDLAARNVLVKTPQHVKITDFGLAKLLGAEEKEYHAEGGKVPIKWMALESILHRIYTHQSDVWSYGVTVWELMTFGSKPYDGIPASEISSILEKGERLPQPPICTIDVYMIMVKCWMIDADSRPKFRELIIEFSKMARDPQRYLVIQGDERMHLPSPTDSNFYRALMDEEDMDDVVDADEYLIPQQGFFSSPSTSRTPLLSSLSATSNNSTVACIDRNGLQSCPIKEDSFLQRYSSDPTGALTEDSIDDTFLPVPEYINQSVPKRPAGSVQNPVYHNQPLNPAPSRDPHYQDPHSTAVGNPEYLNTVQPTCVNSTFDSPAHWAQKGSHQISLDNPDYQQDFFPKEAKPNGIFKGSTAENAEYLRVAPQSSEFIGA

Target: recombinant EGFR kinase (Homo sapiens, UniProt P00533)
Assay: biochemical

IC50: 1.6 nM
SMILES: COc1cc2ncnc(Nc3cccc(Cl)c3)c2cc1OC [AG1478]
